Chains of the proteins cited; added tags and fusions are not shown.
UniProt P35222, whole entry: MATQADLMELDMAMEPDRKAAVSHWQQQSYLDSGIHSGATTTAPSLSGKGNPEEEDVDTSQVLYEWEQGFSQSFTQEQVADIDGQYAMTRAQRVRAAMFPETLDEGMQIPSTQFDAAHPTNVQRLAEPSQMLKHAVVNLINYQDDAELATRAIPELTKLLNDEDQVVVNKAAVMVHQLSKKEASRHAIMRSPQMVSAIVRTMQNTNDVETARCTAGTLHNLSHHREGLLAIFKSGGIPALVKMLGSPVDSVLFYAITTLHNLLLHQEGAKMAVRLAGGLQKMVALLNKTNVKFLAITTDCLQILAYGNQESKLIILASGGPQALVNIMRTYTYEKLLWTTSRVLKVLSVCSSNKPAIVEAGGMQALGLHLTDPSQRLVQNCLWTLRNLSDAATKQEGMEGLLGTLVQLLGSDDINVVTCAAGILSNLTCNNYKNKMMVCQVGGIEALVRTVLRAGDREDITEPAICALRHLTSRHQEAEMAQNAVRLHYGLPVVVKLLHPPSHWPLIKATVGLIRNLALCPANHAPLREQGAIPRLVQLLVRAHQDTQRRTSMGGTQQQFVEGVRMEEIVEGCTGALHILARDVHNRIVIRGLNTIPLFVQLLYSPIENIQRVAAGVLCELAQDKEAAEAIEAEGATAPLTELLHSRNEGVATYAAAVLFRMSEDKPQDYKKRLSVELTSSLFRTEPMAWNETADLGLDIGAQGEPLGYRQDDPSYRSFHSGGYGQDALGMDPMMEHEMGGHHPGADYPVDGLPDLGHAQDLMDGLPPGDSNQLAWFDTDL

According to patent publication US20240360179A1, “STAPLED PEPTIDES AND METHODS THEREOF” (FOG PHARMACEUTICALS, INC., priority 2021, published 2024):

Key:
[1] = biological target: beta-catenin/TCF4 interaction (Homo sapiens, UniProt P35222); test: cell-based; set-up: host or cells: HEK293; conditions: NanoBRET Abs IC50 (uM)
[2] = biological target: T1, full-length B-Catenin (Uniprot ID P35222) (Homo sapiens, UniProt P35222); test: biochemical; assay type: binding; conditions: beta-Catenin FP IC50 (nM), competition fluorescence polarization
T1 construct: 10 nM full-length B-Catenin (Uniprot ID P35222)

Structure (SMILES)	IC50 [1] [µM]	IC50 [2] [nM]	IC50 ([1]; absolute IC50) [µM]
CC(=O)N1CCC[C@]12CC=CCCCC1(CCCC=CCCCOC(=O)N3CC[C@@]4(C3)NC(=O)[C@H](CCCCNC(=O)CC[C@@H](C(=O)N[C@@H](C)C(N)=O)NC(=O)[C@H](Cc3csc5ccccc35)NC(=O)[C@H](Cc3ccsc3)NC4=O)NC(=O)[C@H](Cc3ccccc3)NC(=O)[C@H](C)NC(=O)C(C)(C)NC(=O)[C@H](Cc3cccc(C(=O)O)c3)NC(=O)[C@H](CC(=O)O)NC1=O)NC(=O)[C@H](CC(C)(C)C)NC(=O)[C@H]([C@H](C)O)NC2=O (relative stereo) [I-163, Ac-PL3-aThr-Npg-B5-Asp-3COOHF-Aib-Ala-Phe-Lys*3-PyrS2-3Thi-BztA-GlnR*3-Ala-NH2]	3 to 10	< 50	
CC(=O)N1CCC[C@]12CC=CCCCC1(CCCC=CCCCOC(=O)N3CC[C@@]4(C3)NC(=O)[C@H](CCCCNC(=O)CC[C@@H](C(=O)N[C@@H](C)C(N)=O)NC(=O)[C@H](Cc3csc5ccccc35)NC(=O)[C@H](Cc3ccsc3)NC4=O)NC(=O)[C@H](Cc3ccccc3)NC(=O)[C@H](C)NC(=O)[C@H](C)NC(=O)[C@H](Cc3cccc(C(=O)O)c3)NC(=O)[C@H](CCO)NC1=O)NC(=O)[C@H](CC(C)(C)C)NC(=O)[C@H](CC(=O)O)NC2=O (relative stereo) [I-83, Ac-PL3-Asp-Npg-B5-Hse-3COOHF-Ala-Ala-Phe-Lys*3-PyrS2-3Thi-BztA-GlnR*3-Ala-NH2]	> 10	200 to 750	
CC(=O)N1CCC[C@]12CC=CCCCC1(CCCC=CCCCOC(=O)N3CC[C@@]4(C3)NC(=O)[C@H](CCCCNC(=O)CC[C@@H](C(=O)N[C@@H](C)C(N)=O)NC(=O)[C@H](Cc3csc5ccccc35)NC(=O)[C@H](Cc3ccccc3C(F)(F)F)NC4=O)NC(=O)[C@H](Cc3ccccc3)NC(=O)[C@H](C)NC(=O)[C@H](C)NC(=O)[C@H](CN(CC(=O)O)CC(F)(F)F)NC(=O)[C@H](CC(=O)O)NC1=O)NC(=O)[C@H](CC(C)(C)C)NC(=O)[C@H](CC(=O)O)NC2=O (relative stereo) [I-112, Ac-PL3-Asp-Npg-B5-Asp-TfeGA-Ala-Ala-Phe-Lys*3-PyrS2-2F3MeF-BztA-GlnR*3-Ala-NH2]	3 to 10	< 50	
CC(=O)N1CCC[C@]12CC=CCCCC1(CCCC=CCCCOC(=O)N3CC[C@@](C(=O)N[C@@H](Cc4ccsc4)C(=O)N[C@@H](Cc4csc5ccccc45)C(=O)N[C@@H](CCC(N)=O)C(N)=O)(C3)NC(=O)[C@@H]3Cc4cn(nn4)CCCC[C@H](NC(=O)[C@H](CC(=O)O)NC(=O)[C@H](CC(=O)O)NC1=O)C(=O)N[C@@H](C)C(=O)N[C@@H](Cc1ccccc1)C(=O)N3)NC(=O)[C@H](CC(C)(C)C)NC(=O)[C@H](CC(=O)O)NC2=O (stereo partly drawn) [I-29, Ac-PL3-Asp-Npg-B5-Asp-Asp-TriAzLys*3-Ala-Phe-sAla*3-PyrS2-3Thi-BztA-Gln-NH2]	> 10	< 50	
CC(=O)N1CCC[C@]12CC=CCCCC1(CCCC=CCCCOC(=O)N3CC[C@@]4(C3)NC(=O)[C@H](CCCCNC(=O)CC[C@@H](C(=O)N[C@@H](CCCN3CCOCC3)C(=O)N[C@@H](CO)C(N)=O)NC(=O)[C@H](Cc3csc5ccccc35)NC(=O)[C@H](Cc3ccccc3C(F)(F)F)NC4=O)NC(=O)[C@H](Cc3ccccc3)NC(=O)[C@H](C)NC(=O)C(C)(C)NC(=O)[C@H](Cc3cccc(C(=O)O)c3)NC(=O)[C@H](CC(=O)O)NC1=O)NC(=O)[C@H](CC(C)(C)C)NC(=O)[C@H](CC(=O)O)NC2=O (relative stereo) [I-232, Ac-PL3-Asp-Npg-B5-Asp-3COOHF-Aib-Ala-Phe-Lys*3-PyrS2-2F3MeF-BztA-GlnR*3-MorphNva-Ser-NH2]	> 10	< 50	
CC(=O)N1CCC[C@]12CC=CCCCC1(CCCC=CCCCOC(=O)N3CC[C@@]4(C3)NC(=O)[C@H](CCCCNC(=O)CC[C@@H](C(=O)N[C@@H](C)C(N)=O)NC(=O)[C@H](Cc3csc5ccccc35)NC(=O)[C@H](Cc3ccccc3C(F)(F)F)NC4=O)NC(=O)[C@H](Cc3ccccc3)NC(=O)[C@H](C)NC(=O)C(C)(C)NC(=O)[C@H](Cc3cccc(C(=O)O)c3)NC(=O)[C@H](CCC(=O)O)NC1=O)NC(=O)[C@H](CC(C)(C)C)NC(=O)[C@H](CCC(=O)O)NC2=O (relative stereo) [I-291, Ac-PL3-Glu-Npg-B5-Glu-3COOHF-Aib-Ala-Phe-Lys*3-PyrS2-2F3MeF-BztA-GlnR*3-Ala-NH2]	> 10	> 1000	

The remaining lines, values ahead:

IC50 [1] [µM]	IC50 [2] [nM]	IC50 ([1]; absolute IC50) [µM]	Structure (SMILES)
	< 50	3 to 10	CC(=O)N1CCC[C@]12CC=CCCCC1(CCCC=CCCCOC(=O)N3CC[C@@]4(C3)NC(=O)[C@H](CCCCNC(=O)CC[C@@H](C(=O)N[C@@H](C)C(N)=O)NC(=O)[C@H](Cc3ccc5ccccc5c3)NC(=O)[C@H](Cc3ccccc3)NC4=O)NC(=O)[C@H](Cc3ccccc3)NC(=O)[C@H](C)NC(=O)C(C)(C)NC(=O)[C@H](Cc3cccc(C(=O)O)c3)NC(=O)[C@H](CC(=O)O)NC1=O)NC(=O)[C@H](CC(C)(C)C)NC(=O)[C@H](CC(=O)O)NC2=O (single isomer, unassigned) [I-483, Ac-PL3-Asp-Npg-B5-Asp-3COOHF-Aib-Ala-Phe-Lys*3-PyrS2-Phe-2NapA-GlnR*3-Ala-NH2]
	< 50	> 10	C[C@H](NC(=O)[C@@H]1CCC(=O)NCCCC[C@@H]2NC(=O)[C@H](Cc3ccccc3)NC(=O)[C@H](C)NC(=O)C(C)(C)NC(=O)[C@H](Cc3cccc(C(=O)O)c3)NC(=O)[C@H](CC(=O)O)NC(=O)[C@](C)(NC(=O)[C@@H]3CC=CCCC(=O)N4CCC[C@@]4(C)C(=O)N[C@@H](CC(=O)O)C(=O)N3)CCCC=CCCCOC(=O)N3CC[C@@](C3)(NC2=O)C(=O)N[C@@H](Cc2ccsc2)C(=O)N[C@@H](Cc2csc3ccccc23)C(=O)N1)C(N)=O (single isomer, unassigned) [I-427, 4penteny1-MePro-Asp-AllylGly-R5-Asp-3COOHF-Aib-Ala-Phe-Lys*3-PyrS2-3Thi-BztA-GlnR*3-Ala-NH2]
	< 50	1.5 to 3	CCCCCCCC[C@@H]1NC(=O)[C@H](CC(=O)O)NC(=O)[C@]2(CC=CCCCC3(CCCC=CCCCOC(=O)N4CC[C@@]5(C4)NC(=O)[C@H](CCCCNC(=O)CC[C@@H](C(=O)N[C@@H](C)C(N)=O)NC(=O)[C@H](Cc4csc6ccccc46)NC(=O)[C@H](Cc4ccsc4)NC5=O)NC(=O)[C@H](Cc4ccccc4)NC(=O)[C@H](C)NC(=O)C(C)(C)NC(=O)[C@H](Cc4cccc(C(=O)O)c4)NC(=O)[C@H](CC(=O)O)NC3=O)NC1=O)CCCN2C(C)=O (relative stereo) [I-311, Ac-PL3-Asp-OctG-B5-Asp-3COOHF-Aib-Ala-Phe-Lys*3-PyrS2-3Thi-BztA-GlnR*3-Ala-NH2]
	< 50	1.5 to 3	CC(=O)N1CCC[C@]12CC=CCCCC1(CCCC=CCCCOC(=O)N3CC[C@@]4(C3)NC(=O)[C@H](CCCCNC(=O)CC[C@@H](C(=O)N[C@@H](C)C(N)=O)NC(=O)[C@H](Cc3ccc(Cl)c(Cl)c3)NC(=O)[C@H](Cc3ccccc3Cl)NC4=O)NC(=O)[C@H](Cc3ccccc3)NC(=O)[C@H](C)NC(=O)C(C)(C)NC(=O)[C@H](Cc3cccc(C(=O)O)c3)NC(=O)[C@H](CC(=O)O)NC1=O)NC(=O)[C@H](CC(C)(C)C)NC(=O)[C@H](CC(=O)O)NC2=O (relative stereo) [I-472, Ac-PL3-Asp-Npg-B5-Asp-3COOHF-Aib-Ala-Phe-Lys*3-PyrS2-2ClF-34ClF-GlnR*3-Ala-NH2]
